# Measured values from doi:10.1101/2022.05.23.493136 (bioRxiv, 2022).
# B1: HfqΔCTD (truncated Hfq lacking the CTDs) (domain or fragment, E. coli, UniProt P0A6X3 1-65, looked up)
# chain: MAKGQSLQDPFLNALRRERVPVSIYLVNGIKLQGQIESFDQFVILLKNTVSQMVYKHAISTVVPS
# Molecular target: the molecule itself
# Test: native MS
protein,measurement,value
B1,stoichiometry N,6
